For test [1], the system named is RD cells. The test is described as follows: N6L treatment, MTT cell viability, RD. Type of test: cell-based. The note with it: N6L 0-100 μM, 72 h.
In test [2] the test system is Rh30 cells. Kind of test: N6L treatment, MTT cell viability, Rh30. The test is classed as cell-based. The following applies: N6L 0-100 μM, 72 h.

Here are results for 1 compound from publication PMC9600270 (Cancers, 2022).

The IC50 is the concentration at which inhibition is half-maximal. Higher therefore signals weaker potency.

With `CC(=O)N[C@@H](CCCCNC(=O)[C@H](CCCNC(=N)N)NC(=O)[C@@H]1CCCN1C[C@@H](N)CCCCN)C(=O)NC(C)(C)C(=O)NCC(=O)N[C@@H](CCCCNC(=O)[C@H](CCCNC(=N)N)NC(=O)[C@@H]1CCCN1C[C@@H](N)CCCCN)C(=O)NC(C)(C)C(=O)NCC(=O)N[C@@H](CCCCNC(=O)[C@H](CCCNC(=N)N)NC(=O)[C@@H]1CCCN1C[C@@H](N)CCCCN)C(=O)NC(C)(C)C(=O)NCC(=O)N[C@@H](CCCCNC(=O)[C@H](CCCNC(=N)N)NC(=O)[C@@H]1CCCN1C[C@@H](N)CCCCN)C(=O)NC(C)(C)C(=O)NCC(=O)N[C@@H](CCCCNC(=O)[C@H](CCCNC(=N)N)NC(=O)[C@@H]1CCCN1C[C@@H](N)CCCCN)C(=O)NC(C)(C)C(=O)NCC(=O)N[C@@H](CCCCNC(=O)[C@H](CCCNC(=N)N)NC(=O)[C@@H]1CCCN1C[C@@H](N)CCCCN)C(=O)NC(C)(C)C(=O)NCC(N)=O` [N6L], the IC50 in test [1] came out at 12.3 µM; in test [2], 10.2 µM.
